Assay [1] addresses T1, P2X7 (Homo sapiens (Human), UniProt Q99572). The assay is described as follows: Radioligand binding, tritiated A-804598, human P2X7-1321N1 cell membranes.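 Note: ki obtained from the binding IC50 after correction for tracer concentration and tracer affinity.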 The settings on record: 1 hour at 4° C.
In assay [2] the target is T1, P2X7. Kind of assay: Ca2+ flux (FLIPR) in 1321N1 cells expressing recombinant human P2X7 channel.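 Note: Calcium-4 dye-loaded cells exposed to compound for 30 min before agonist addition, fluorescence change read 180 s after agonist.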 It counts as cell-based. The settings on record: 250 μM BzATP. A general note: A change in cytosolic calcium serves as a functional read-out for many receptors and channels.
Assay [3] concerns the target T2, rat P2X7 (Rattus norvegicus (Rat), UniProt Q64663). The assay is described as follows: Ca2+ flux (FLIPR) in 1321N1 cells expressing recombinant rat P2X7 channel.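 Note: Calcium-4 dye fluorescence change read 180 s after agonist addition, following 30 min cell preincubation with test compound.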 It counts as cell-based. The settings on record: 250 μM BzATP.
For assay [4], the target named is T2, rat P2X7. The assay is described as follows: Radioligand binding, tritiated A-804598, rat P2X7-1321N1 cell membranes. The settings on record: 1 hour at 4° C.

Sequences of proteins named here, by UniProt entry; tags and fusion partners are left off. A change or cut given only in a name is not applied to a line headed by its entry.
UniProt Q99572: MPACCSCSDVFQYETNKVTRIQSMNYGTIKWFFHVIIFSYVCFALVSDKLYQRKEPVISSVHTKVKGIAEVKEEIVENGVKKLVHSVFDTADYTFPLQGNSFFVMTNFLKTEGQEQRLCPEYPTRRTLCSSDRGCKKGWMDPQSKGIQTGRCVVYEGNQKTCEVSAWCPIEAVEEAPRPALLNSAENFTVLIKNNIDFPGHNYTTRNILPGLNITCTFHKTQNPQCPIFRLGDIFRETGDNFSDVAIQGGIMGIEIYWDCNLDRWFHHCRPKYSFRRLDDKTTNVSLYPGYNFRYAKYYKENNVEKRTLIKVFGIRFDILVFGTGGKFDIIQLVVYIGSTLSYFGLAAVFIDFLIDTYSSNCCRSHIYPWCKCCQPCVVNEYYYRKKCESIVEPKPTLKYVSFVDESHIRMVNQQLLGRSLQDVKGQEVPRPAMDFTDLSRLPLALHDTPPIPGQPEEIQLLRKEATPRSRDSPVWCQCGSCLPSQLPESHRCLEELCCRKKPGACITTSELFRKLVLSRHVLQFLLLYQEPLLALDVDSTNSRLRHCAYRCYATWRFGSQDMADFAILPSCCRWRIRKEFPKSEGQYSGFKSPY
UniProt Q64663: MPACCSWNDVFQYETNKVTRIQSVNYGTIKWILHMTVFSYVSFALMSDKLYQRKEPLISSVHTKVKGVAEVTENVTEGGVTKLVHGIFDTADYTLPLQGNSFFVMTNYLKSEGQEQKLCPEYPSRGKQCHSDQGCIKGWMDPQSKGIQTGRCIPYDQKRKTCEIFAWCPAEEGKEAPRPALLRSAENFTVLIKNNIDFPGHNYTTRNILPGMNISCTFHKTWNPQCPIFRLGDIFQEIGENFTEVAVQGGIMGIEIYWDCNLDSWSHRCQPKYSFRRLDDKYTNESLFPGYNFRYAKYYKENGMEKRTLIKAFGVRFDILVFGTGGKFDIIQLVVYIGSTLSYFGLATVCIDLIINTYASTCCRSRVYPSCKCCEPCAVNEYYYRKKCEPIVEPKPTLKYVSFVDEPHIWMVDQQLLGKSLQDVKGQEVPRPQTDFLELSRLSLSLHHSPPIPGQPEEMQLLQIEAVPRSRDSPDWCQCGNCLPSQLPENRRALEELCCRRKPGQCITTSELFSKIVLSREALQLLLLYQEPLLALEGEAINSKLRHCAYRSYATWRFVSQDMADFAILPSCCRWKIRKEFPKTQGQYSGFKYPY

The Ki is a measure of affinity in units of concentration, obtained from inhibition or displacement. A lower Ki goes with higher affinity. The IC50 is the point on the concentration scale where inhibition reaches its midpoint. Take `COc1ccnc(-n2nnc3c2CCN(C(=O)c2cccc(C(F)(F)F)c2Cl)[C@H]3C)c1` (single isomer, unassigned) [Example 151, (R*)-(2-Chloro-3-(trifluoromethyl)phenyl)(1-(4-methoxypyridin-2-yl)-4-methyl-6,7-dihydro-1H-[1,2,3]triazolo[4,5-c]pyridin-5(4H)-yl)methanone]: the affinity at P2X7 [1], expressed as Ki, was 50.1 nM. Further, the half-maximal inhibitory concentration (IC50) on P2X7 [2] was 5.7 nM; on rat P2X7 [3], 21.6 nM.
The matching figures for `C[C@H]1Cc2c(nnn2-c2ncc(F)cn2)CN1C(=O)c1cccc(Cl)c1Cl` (single isomer, unassigned) [Example 205, (6S*)-5-[(2,3-Dichlorophenyl)carbonyl]-1-(5-fluoropyrimidin-2-yl)-6-methyl-4,5,6,7-tetrahydro-1H-[1,2,3]triazolo[4,5-c]pyridine]: 4 nM, 1 nM and 108 nM.
The corresponding values for `CC1c2nnn(-c3ncc(F)cn3)c2CCN1C(=O)c1cccc(C(F)(F)F)c1F` (stereo not shown) [Example 175, (2-fluoro-3-(trifluoromethyl)phenyl)(1-(5-fluoropyrimidin-2-yl)-4-methyl-6,7-dihydro-1H-[1,2,3]triazolo[4,5-c]pyridin-5(4H)-yl)methanone] are 39.8 nM, 18.1 nM and 2880 nM.
As for `O=C(c1cccc(Cl)c1Cl)N1CCc2c(ncn2-c2ccccc2)C1` [Example 3, (2,3-Dichlorophenyl)(1-phenyl-6,7-dihydro-1H-imidazo[4,5-c]pyridin-5(4H)-yl)methanone], the affinity at P2X7 [1] corresponds to a Ki of 60.3 nM. In addition, the IC50 at rat P2X7 [3] was 4480 nM.
The matching figures for `O=C(c1cccc(C(F)(F)F)c1Cl)N1CCc2c(ncn2-c2ccc(F)cn2)C1` [Example 315, (2-chloro-3-(trifluoromethyl)phenyl)(1-(5-fluoropyridin-2-yl)-6,7-dihydro-1H-imidazo[4,5-c]pyridin-5(4H)-yl)methanone]: 15.8 nM and 2490 nM.
For the compound `CC1c2nnn(-c3cnccn3)c2CCN1C(=O)c1cccc(C(F)(F)F)c1Cl` (stereo not shown) [Example 73, 5-{[2-Chloro-3-(trifluoromethyl)phenyl]carbonyl}-4-methyl-1-pyrazin-2-yl-4,5,6,7-tetrahydro-1H-[1,2,3]triazolo[4,5-c]pyridine], the Ki came to 251 nM on P2X7 [1] and 19.1 nM at rat P2X7 [4]. The IC50 on P2X7 [2] was found to be 14.5 nM; at rat P2X7 [3], 40.8 nM.
In turn, `CCc1nc2c(n1-c1ccccc1)CCN(C(=O)c1cccc(C(F)(F)F)c1Cl)C2C` (stereo not shown) [Example 184, (2-Chloro-3-(trifluoromethyl)phenyl)(2-ethyl-4-methyl-1-phenyl-6,7-dihydro-1H-imidazo[4,5-c]pyridin-5(4H)-yl)methanone] had a Ki on P2X7 [1] of 372 nM. The figures for the IC50 on P2X7 [2] and at rat P2X7 [3] were 106 nM and 1640 nM, respectively.
The corresponding values for `C[C@@H]1c2nnn(-c3cc(F)ccn3)c2CCN1C(=O)c1cccc(C(F)(F)F)c1Cl` (single isomer, unassigned) [Example 148, (R*)-(2-Chloro-3-(trifluoromethyl)phenyl)(1-(4-fluoropyridin-2-yl)-4-methyl-6,7-dihydro-1H-[1,2,3]triazolo[4,5-c]pyridin-5(4H)-yl)methanone] are 31.6 nM, 8.5 nM and 11.8 nM.
For `CC1c2ncn(-c3ccccc3)c2CCN1C(=O)c1cccc(C(F)(F)F)c1Cl` (stereo not shown) [Example 12, (2-Chloro-3-(trifluoromethyl)phenyl)(4-methyl-1-phenyl-6,7-dihydro-1H-imidazo[4,5-c]pyridin-5(4H)-yl)methanone], the Ki on P2X7 [1] amounted to 85.1 nM; on rat P2X7 [4] it was 135 nM. Besides, the IC50 at P2X7 [2] came to 6.1 nM.
Turning to `O=C(c1cccc(Cl)c1Cl)N1CCc2c(-c3ccccc3)n[nH]c2C1` [Example 100, 6-[(2,3-Dichlorophenyl)carbonyl]-3-phenyl-4,5,6,7-tetrahydro-1H-pyrazolo[3,4-c]pyridine], the Ki on P2X7 [1] worked out at 75.9 nM. The IC50 at P2X7 [2] was found to be 6.2 nM; at rat P2X7 [3] it was 1640 nM.
Take `COCCn1ccc(-n2nnc3c2CCN(C(=O)c2cccc(C(F)(F)F)c2Cl)[C@H]3C)n1` (single isomer, unassigned) [Example 249, (S*)-(2-Chloro-3-(trifluoromethyl)phenyl)(1-(1-(2-methoxyethyl)-1H-pyrazol-3-yl)-4-methyl-6,7-dihydro-1H-[1,2,3]triazolo[4,5-c]pyridin-5(4H)-yl)methanone]: the Ki was determined as 20 nM on P2X7 [1] and 2.2 nM at rat P2X7 [4]. The concentration for half-maximal inhibition (IC50) at P2X7 [2] stood at 12.7 nM; at rat P2X7 [3] it was 3.8 nM.
The corresponding values for `C[C@@H]1c2nnn(-c3cnccn3)c2CCN1C(=O)c1cccc(C(F)(F)F)c1Cl` (single isomer, unassigned) [Example 74, (4R*)-5-{[2-Chloro-3-(trifluoromethyl)phenyl]carbonyl}-4-methyl-1-pyrazin-2-yl-4,5,6,7-tetrahydro-1H-[1,2,3]triazolo[4,5-c]pyridine] are 13200 nM, 2240 nM, 13400 nM and 19200 nM.
With `O=C(c1cccc(C(F)(F)F)c1Cl)N1CCc2c(nnn2-c2cnccn2)C1` [Example 91, 5-{[2-Chloro-3-(trifluoromethyl)phenyl]carbonyl}-1-pyrazin-2-yl-4,5,6,7-tetrahydro-1H-[1,2,3]triazolo[4,5-c]pyridine], the Ki at P2X7 [1] is 23.4 nM. In addition, the IC50 at rat P2X7 [3] is 1490 nM.
Turning to `Cc1cccnc1-n1nnc2c1CCN(C(=O)c1cccc(C(F)(F)F)c1Cl)[C@@H]2C` (single isomer, unassigned) [Example 291, (R*)-(2-chloro-3-(trifluoromethyl)phenyl)(4-methyl-1-(3-methylpyridin-2-yl)-6,7-dihydro-1H-[1,2,3]triazolo[4,5-c]pyridin-5(4H)-yl)methanone], the Ki at P2X7 [1] was 21.9 nM. In addition, the IC50 at P2X7 [2] is 99.1 nM; at rat P2X7 [3], 1620 nM.
The matching figures for `C[C@H]1Cc2c(nnn2-c2ncc(F)cn2)CN1C(=O)c1ccc(F)c(Cl)c1Cl` (single isomer, unassigned) [Example 215, (6S*)-5-[(2,3-Dichloro-4-fluorophenyl)carbonyl]-1-(5-fluoropyrimidin-2-yl)-6-methyl-4,5,6,7-tetrahydro-1H-[1,2,3]triazolo[4,5-c]pyridine]: 10 nM, 2 nM and 1.9 nM.
The matching figures for `C[C@H]1Cc2c(nnn2-c2ncc(F)cn2)CN1C(=O)c1cccc(C(F)(F)F)c1` [Example 304, (S)-(1-(5-fluoropyrimidin-2-yl)-6-methyl-6,7-dihydro-1H-[1,2,3]triazolo[4,5-c]pyridin-5(4H)-yl)(3-(trifluoromethyl)phenyl)methanone]: 22.4 nM, 113 nM and 5650 nM.
Consider `C[C@H]1c2nnn(-c3cnccn3)c2CCN1C(=O)c1cccc(C(F)(F)F)c1Cl` (single isomer, unassigned) [Example 75, (4 S*)-5-{[2-Chloro-3-(trifluoromethyl)phenyl]carbonyl}-4-methyl-1-pyrazin-2-yl-4,5,6,7-tetrahydro-1H-[1,2,3]triazolo[4,5-c]pyridine], for which the inhibitory constant (Ki) on P2X7 [1] came to 44.7 nM; on rat P2X7 [4], 6.2 nM. Also, the figures for the IC50 at P2X7 [2] and at rat P2X7 [3] were 3.4 nM and 9.1 nM, respectively.
In the case of `CC1Cc2c(nnn2-c2ncc(F)cn2)CN1C(=O)c1cccc(Cl)c1Cl` (stereo not shown) [Example 203, 5-[(2,3-Dichlorophenyl)carbonyl]-1-(5-fluoropyrimidin-2-yl)-6-methyl-4,5,6,7-tetrahydro-1H-[1,2,3]triazolo[4,5-c]pyridine], at P2X7 [1], the affinity, expressed as Ki, was 7.9 nM. The values for the IC50 on P2X7 [2] and at rat P2X7 [3] were 10.5 nM and 113 nM, respectively.
The corresponding values for `Cc1cccnc1-n1nnc2c1CCN(C(=O)c1cccc(C(F)(F)F)c1Cl)C2C` (stereo not shown) [Example 259, (2-Chloro-3-(trifluoromethyl)phenyl)(4-methyl-1-(3-methylpyridin-2-yl)-6,7-dihydro-1H-[1,2,3]triazolo[4,5-c]pyridin-5(4H)-yl)methanone] are 57.5 nM, 40.6 nM and 10100 nM.
